Experimental data as given in patent US3962443A, “Antibacterial pharmaceutical compositions and processes for preparation thereof” (Dainippon Pharmaceutical Co., Ltd., priority 1972, dated 1976).
Like-named read-outs stand apart in the source and are kept apart here.

Columns and labels:
[1] = 7 days
in vivo = details: mouse

For CCn1cc(C(=O)O)c(=O)c2cnc(N3CCNCC3)nc21 [Compound 1, 5,8-Dihydro-8-ethyl-2-(1-piperazinyl)-5-oxopyrido[2,3-d]pyrimidine-6-carboxylic acid], the “number of survival/the total number” value ([1]; iv, 500 mg/kg) was 6/6, the “number of survival/the total number” value ([1]; iv, 1000 mg/kg) was 0/6 and the “number of survival/the total number” value ([1]; po, 2000 mg/kg) was 6/6. The “number of survival/the total number” value ([1]; po, 4000 mg/kg) was 6/6, the LD50 at 168 h (in vivo; iv) was 700 mg/kg and the LD50 at 168 h (in vivo; po) was > 4000 mg/kg.
